This is an account of results in patent US5874442A, “Tricyclic amides useful for inhibition of G-protein function and for treatment of proliferative disease” (Schering-Plough Corporation, priority 1996, dated 1999).

Protein sequences, listed by entry. Tags and fused reporters are not part of them.
UniProt Q02293, whole entry: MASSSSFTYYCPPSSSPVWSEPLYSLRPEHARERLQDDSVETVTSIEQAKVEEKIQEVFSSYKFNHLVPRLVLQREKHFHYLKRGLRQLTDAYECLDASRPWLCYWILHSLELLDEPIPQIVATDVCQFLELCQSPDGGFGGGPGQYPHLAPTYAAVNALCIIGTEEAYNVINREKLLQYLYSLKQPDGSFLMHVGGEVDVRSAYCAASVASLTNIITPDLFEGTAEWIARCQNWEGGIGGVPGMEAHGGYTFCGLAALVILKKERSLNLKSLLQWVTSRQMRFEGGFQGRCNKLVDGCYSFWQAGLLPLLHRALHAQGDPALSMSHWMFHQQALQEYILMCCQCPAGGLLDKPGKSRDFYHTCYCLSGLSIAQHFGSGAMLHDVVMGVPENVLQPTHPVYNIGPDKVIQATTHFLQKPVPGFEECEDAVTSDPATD

The target in this assay is T1, farnesyl protein transferase (FPT) (Rattus norvegicus, UniProt Q02293+Q04631).
T1 construct: were partially purified from rat brain by ammonium sulfate fractionation; from tissue; host or cells: rat brain (ammonium sulfate fractionation, Q-Sepharose)
The assay can be described thus: In vitro enzyme assay: inhibition of farnesyl protein transferase (FPT), [3H]farnesyl transfer to Ras-CVLS. Type of assay: biochemical. Particulars: Table 1; Ras-CVLS substrate, 30 minutes at room temperature. As to the method: 1. In vitro enzyme assays:
Inhibition of farnesyl protein transferase and geranylgeranyl protein transferase.
Human farnesyl protein transferase was also expressed in E. coli, using cDNA clones encoding both the a and b subunits. […] Human farnesyl protein transferase was partially-purified from the soluble protein fraction of E. coli as described above. […] Two forms of val^12 -Ha-Ras protein were prepared as substrates for these enzymes, differing in their carboxy terminal sequence. One form terminated in cysteine-valine-leucine-serine (Ras-CVLS) the other in cystein-valine-leucine-leucine (Ras-CVLL). Ras-CVLS is a substrate for the farnesyl protein transferase while Ras-CVLL is a substrate for geranylgeranyl protein transferase I. The cDNAs encoding these proteins were constructed so that the proteins contain an amino-terminal extension of 6 histidine residues. Both proteins were expressed in Escherichia coli and purified using metal chelate affinity chromatography. The radiolabelled isoprenyl pyrophosphate substrates, [^3 H]farnesyl pyrophosphate and [^3 H] geranylgeranyl pyrophosphate, were purchased from DuPont/New England Nuclear.
The reaction was allowed to proceed for 30 minutes at room temperature and then stopped with 0.5 ml of 4% sodium dodecyl sulfate (SDS) followed by 0.5 ml of cold 30% TCA. […] Percent inhibition was calculated relative to the DMSO vehicle control.

For the compound `NC(=O)N1CCC(CC(=O)N2CCC([C@H]3c4ncc(Br)cc4CCc4cc(Cl)cc(Br)c43)CC2)CC1` [Example 10], the IC50 (in general, the concentration needed to halve the response being measured) came to 1.9 nM.
